Test results reported in patent US20240261333A1 (published 2024).

Key:
Assay in all cases: co-IP, anti-FLAG, lysate of N-FLAG B3GNT2 cells, mass spectrometry
CEP170 = molecular target: T1, CEP170 (UniProt Q5SW79 1-1584, limits assumed)
T1 construct: also called XP_016858423.1

LRP2 = molecular target: T2, LRP2 (UniProt P98164 26-4655)
T2 construct: also called NP_004516.2

MAP1B = molecular target: T3, MAP1B (UniProt P46821 2-2468, limits assumed)
T3 construct: also called NP_005900.2

RBMX = molecular target: T4, RBMX (UniProt P38159 1-391)
T4 construct: also called NP_002130.2

GNAS = molecular target: T5, GNAS (UniProt Q5JWF2 1-1037, limits assumed)
T5 construct: The 111 kDa entry is the extra-large form of GNAS; also called NP_536350.2 (+3)

ARPC2 = ARPC2 (UniProt O15144 1-300)
PGK1 = molecular target: T6, PGK1 (UniProt P00558 2-417)
T6 construct: also called NP_000282.1
T6 sequence (looked up): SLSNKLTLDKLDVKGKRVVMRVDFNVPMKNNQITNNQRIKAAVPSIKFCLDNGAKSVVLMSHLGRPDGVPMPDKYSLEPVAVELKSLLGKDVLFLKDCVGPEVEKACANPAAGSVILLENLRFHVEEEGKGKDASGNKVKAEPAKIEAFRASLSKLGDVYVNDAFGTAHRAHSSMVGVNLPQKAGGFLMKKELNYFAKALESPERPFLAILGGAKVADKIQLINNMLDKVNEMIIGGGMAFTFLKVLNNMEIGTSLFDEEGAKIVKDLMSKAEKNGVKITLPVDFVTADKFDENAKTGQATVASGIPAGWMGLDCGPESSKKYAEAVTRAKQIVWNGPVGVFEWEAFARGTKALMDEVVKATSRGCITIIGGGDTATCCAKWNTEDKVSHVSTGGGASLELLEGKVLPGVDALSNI

TM9SF3 = molecular target: T7, TM9SF3 (UniProt Q9HD45 29-589)
T7 construct: also called NP_064508.3 (+1)
T7 sequence (looked up): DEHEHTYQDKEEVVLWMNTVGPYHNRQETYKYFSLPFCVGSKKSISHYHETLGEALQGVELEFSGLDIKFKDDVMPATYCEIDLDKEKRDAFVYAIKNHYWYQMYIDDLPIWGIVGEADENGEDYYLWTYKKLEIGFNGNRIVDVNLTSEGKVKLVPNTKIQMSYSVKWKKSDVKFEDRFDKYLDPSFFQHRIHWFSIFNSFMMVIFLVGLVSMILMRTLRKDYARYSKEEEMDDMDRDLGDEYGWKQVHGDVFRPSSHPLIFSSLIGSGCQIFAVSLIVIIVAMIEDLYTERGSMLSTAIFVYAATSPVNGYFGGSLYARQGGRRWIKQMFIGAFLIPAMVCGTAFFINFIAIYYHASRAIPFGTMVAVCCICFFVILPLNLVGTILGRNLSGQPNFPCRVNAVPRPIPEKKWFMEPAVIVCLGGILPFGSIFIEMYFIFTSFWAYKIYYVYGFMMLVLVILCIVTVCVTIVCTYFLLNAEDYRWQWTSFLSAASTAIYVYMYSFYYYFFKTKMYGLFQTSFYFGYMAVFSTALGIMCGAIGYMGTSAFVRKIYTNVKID

MYO1D = molecular target: T8, MYO1D (UniProt O94832 2-1006)
T8 construct: also called NP_056009.1 (+1)
T8 sequence (looked up): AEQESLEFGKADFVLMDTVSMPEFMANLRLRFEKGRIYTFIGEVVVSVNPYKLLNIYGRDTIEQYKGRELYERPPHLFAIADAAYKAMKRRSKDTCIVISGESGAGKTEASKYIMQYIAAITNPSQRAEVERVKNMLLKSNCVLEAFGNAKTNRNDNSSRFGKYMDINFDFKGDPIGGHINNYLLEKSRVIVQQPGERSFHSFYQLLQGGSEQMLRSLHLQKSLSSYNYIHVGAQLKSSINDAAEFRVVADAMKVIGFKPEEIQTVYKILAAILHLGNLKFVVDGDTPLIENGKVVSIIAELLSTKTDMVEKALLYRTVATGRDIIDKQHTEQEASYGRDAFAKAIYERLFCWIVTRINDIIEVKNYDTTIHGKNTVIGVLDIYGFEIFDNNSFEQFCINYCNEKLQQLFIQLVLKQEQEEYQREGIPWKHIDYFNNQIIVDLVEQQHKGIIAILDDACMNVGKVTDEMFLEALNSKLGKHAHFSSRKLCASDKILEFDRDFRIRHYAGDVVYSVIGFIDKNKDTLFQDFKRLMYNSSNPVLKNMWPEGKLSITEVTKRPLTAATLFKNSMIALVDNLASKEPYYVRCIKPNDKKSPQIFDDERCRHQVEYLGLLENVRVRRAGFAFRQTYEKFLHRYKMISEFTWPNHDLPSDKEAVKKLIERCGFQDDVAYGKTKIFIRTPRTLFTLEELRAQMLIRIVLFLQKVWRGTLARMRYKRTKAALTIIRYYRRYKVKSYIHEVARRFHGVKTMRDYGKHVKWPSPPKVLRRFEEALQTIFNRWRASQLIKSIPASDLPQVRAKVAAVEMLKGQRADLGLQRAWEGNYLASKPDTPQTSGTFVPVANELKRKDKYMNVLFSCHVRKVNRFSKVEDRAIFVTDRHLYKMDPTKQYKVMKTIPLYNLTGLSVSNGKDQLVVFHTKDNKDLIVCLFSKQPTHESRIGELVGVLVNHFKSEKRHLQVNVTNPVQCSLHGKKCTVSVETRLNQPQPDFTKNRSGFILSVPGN

NCL = molecular target: T9, NCL (UniProt P19338 2-710)
T9 construct: also called NP_005372.2

ABCF1 = molecular target: T10, ABCF1 (UniProt Q8NE71 1-845)
T10 construct: also called NP_001020262.1 (+1)

TNC = molecular target: T11, TNC (UniProt P24821 23-2201, limits assumed)
T11 construct: also called NP_002151.2 (+4)

LAMB1 = molecular target: T12, LAMB1 (UniProt P07942 22-1786)
T12 construct: also called NP_002282.2 (+1)

HLA-A = molecular target: T13, HLA-A (UniProt P04439 25-365, limits assumed)
T13 construct: also called XP_024308303.1

PPIB = molecular target: T14, PPIB (UniProt P23284 34-216)
T14 construct: also called NP_000933.1

RNASE1 = molecular target: T15, RNASE1 (UniProt P07998 29-156)
T15 construct: also called NP_002924.1
T15 sequence (looked up): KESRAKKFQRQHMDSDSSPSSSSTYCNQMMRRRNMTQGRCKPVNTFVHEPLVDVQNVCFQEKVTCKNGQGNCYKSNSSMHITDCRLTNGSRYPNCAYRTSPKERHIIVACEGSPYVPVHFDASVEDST

B1: N-terminal FLAG tagged B3GNT2 (enzyme, human, UniProt Q9NY97 1-397, looked up)
chain: MSVGRRRIKLLGILMMANVFIYFIMEVSKSSSQEKNGKGEVIIPKEKFWKISTPPEAYWNREQEKLNRQYNPILSMLTNQTGEAGRLSNISHLNYCEPDLRVTSVVTGFNNLPDRFKDFLLYLRCRNYSLLIDQPDKCAKKPFLLLAIKSLTPHFARRQAIRESWGQESNAGNQTVVRVFLLGQTPPEDNHPDLSDMLKFESEKHQDILMWNYRDTFFNLSLKEVLFLRWVSTSCPDTEFVFKGDDDVFVNTHHILNYLNSLSKTKAKDLFIGDVIHNAGPHRDKKLKYYIPEVVYSGLYPPYAGGGGFLYSGHLALRLYHITDQVHLYPIDDVYTGMCLQKLGLVPEKHKGFRTFDIEEKNKNNICSYVDLMLVHSRKPQEMIDIWSQLQSAHLKC
notes: Bait of the co-IP; overexpressed from a synthesized ORF and pulled down from cell lysate with mouse anti-FLAG; also called N-FLAG B3GNT2; N-term FLAG; not shown: FLAG tag at the N-terminus
B1 showed a co-IP/MS count (CEP170) of 0, a co-IP/MS count (LRP2) of 0 and a co-IP/MS count (MAP1B) of 0. It also gave a co-IP/MS count (RBMX) of 0, a co-IP/MS count (GNAS) of 0 and a co-IP/MS count (ARPC2) of 0. For the same binder, the co-IP/MS count (PGK1) was 0, the co-IP/MS count (TM9SF3) was 0 and the co-IP/MS count (MYO1D) was 0. The co-IP/MS count (NCL) was 0, the co-IP/MS count (ABCF1) was 0 and the co-IP/MS count (TNC) was 0. The co-IP/MS count (LAMB1) was 0, the co-IP/MS count (HLA-A) was 6 and the co-IP/MS count (PPIB) was 0. The co-IP/MS count (RNASE1) was 0.
